Results as given in patent US9795692B2, “Ocular detection of amyloid proteins” (SYSTEM OF SYSTEMS ANALYTICS, INC., priority 2011, dated 2017).

Legend:
Assay type in all cases: binding
[1] = molecular target: T1, amyloid protein aggregate in human brain tissue (Homo sapiens, UniProt P05067); assay: Staining of human brain tissue (Alzheimer's Disease vs age-matched control)
T1 construct: from tissue; host or cells: human post-mortem brain tissue (neocortex, hippocampus, cerebral cortex)
Protocol: PEP-11 was prepared and applied to Alzheimer's Disease brain tissue and age-matched non-Alzheimer's Disease human brain tissue, used as a control.

[2] = test system: amyloid protein aggregates in brain tissue of transgenic mice with Alzheimer's Disease (Tg AD); assay: Staining of murine brain tissue with FITC-labeled probe; settings: dentate gyms and midbrain
Protocol: Probes for detecting amyloid protein aggregates in brain tissue of transgenic mice with Alzheimer's Disease (Tg AD) were prepared in accordance with the methods described herein. Specifically, PEP-11 (SEQ ID NO: 56 labeled with FITC) was prepared and applied to Tg AD brain tissue and age-matched non-TG murine brain tissue, used as a control.

[3] = molecular target: T2, non-Congophilic amyloid protein aggregates in human brain tissue (Homo sapiens, UniProt P05067); assay: Staining of human hippocampal region and cerebral cortex compared with Congo Red
T2 construct: from tissue; host or cells: human post-mortem brain tissue (neocortex, hippocampus, cerebral cortex)
Excerpt: PEP-11 was used to stain human tissue from the hippocampal region and cerebral cortex of human brain tissue from patients with and without Alzheimer's Disease. The PEP-11 stain was compared with Congo Red staining of the same regions. FIG. 3 (Table 3) presents a subset of patients studied: (1) Patient 0001: person, with Alzheimer's Disease diagnosis, confirmed by post-mortem neuropathology indicating hippocampal pyramidal cell layer neurofibrillary tangles and plaques, entorhinal cortex containing extraneuronal tangles and many neurons containing neurofibrillary tangles; and (2) Patient 0002: person, without Alzheimer's Disease, confirmed by post-mortem neuropathology indicating subcortical white matter well myelinated, no Alzheimer's type II glia in neocortex and brain stem, no acute or chronic neuron loss in hippocampi, and no hippocampal sclerosis.

[4] = test system: amyloid aggregates in human eyes (optic nerve, ciliary retina, retina, drusen); assay: Staining of sectioned human donor eyes; settings: Alzheimer's Disease patients
Excerpt: Human eyes from donors with and without Alzheimer's Disease were obtained from the Georgia Eye Bank. The eyes were sectioned and then stained with PEP-11 or BC750 (positive control), a small molecule dye used as a probe to detect Alzheimer's Disease.

PEP-11: WT17-35 with FITC and d-Arginine at C-Terminal (CLVFFAEDVGSNKGAIIGLMC; FITC label, C-terminal D-arginine; /note=“Description of Artificial Sequence Synthetic probe”)
staining of Alzheimer's Disease brain tissue relative to control ([1]; human AD brain, neocortex and hippocampus): significantly greater degree
staining of non-Alzheimer's Disease control brain tissue ([1]; human, age-matched control, neocortex or hippocampus): minimally stained
staining of Tg AD brain tissue relative to non-Tg control [2]: significantly greater degree
staining of extracellular and neuronal structures ([3]; Patient 0001 with Alzheimer's Disease): staining was seen
staining of extracellular and neuronal structures ([3]; Patient 0002, without Alzheimer's Disease): no staining
structures stained in the cerebral cortex ([3]; cerebral cortex of patients with Alzheimer's Disease): stained non-Congophilic plaque-like structures in the vicinity of tangle neurons
staining of morphological structures within the brain parenchyma ([3]; human brain parenchyma): Neither Congo Red nor PEP-11 stained any morphological structure
structures stained in the hippocampal region ([3]; human brain tissue, hippocampal region): stained non-Congophilic plaque-like structures in the vicinity of the plaques
overall staining appearance ([3]; human brain tissue, relative to amyloid plaques stained by Congo Red): diffuse staining surrounding amyloid plaque centers
relative staining in brain, posterior optic nerve and sensory retina [4]: greatest in the brain and surrounding amyloid plaques, with less staining in the posterior optic nerve and even less staining in the sensory retina
